# Literature values in patent US9795131B2, “Sophorolactone compositions and uses thereof” (ECOVER CO-ORDINATION CENTER N.V., priority 2011, dated 2017).
# Conditions: OK / NOK; cited from earlier work
substance,measurement,value
Glycerin formal,GRAS status,NOK
